Literature values, collected in patent publication US20040115309A1, “Food supplement” (priority 2000, published 2004).

Settings: horses

Cn1c(=O)c2[nH]cnc2n(C)c1=O [theophylline]
Therapeutic level (blood concentration): 10 µg/mL
Toxic levels (blood concentration): 15 µg/mL
